Test results reported in PMC6114104 (International Journal for Parasitology: Drugs and Drug …, 2018).

System: S. neurona + GFP/FLUC parasites
Test: Luciferase-based S. neurona growth inhibition, EC50 determination
Conditions: ratio of BT cell TC50 to S. neurona EC50

Cc1c(C(=O)NN2CCCCC2)nn(-c2ccc(Cl)cc2Cl)c1-c1ccc(I)cc1 [AM-251]
TI (TC50/EC50): 59
